# Source: patent US7422892B2, “Enzyme-based device for environmental monitoring” (dated 2008)
# Amino acid sequences for entries named in this document (tags omitted). Residues count along the entry.
# UniProt P00784, 134-345 limits assumed: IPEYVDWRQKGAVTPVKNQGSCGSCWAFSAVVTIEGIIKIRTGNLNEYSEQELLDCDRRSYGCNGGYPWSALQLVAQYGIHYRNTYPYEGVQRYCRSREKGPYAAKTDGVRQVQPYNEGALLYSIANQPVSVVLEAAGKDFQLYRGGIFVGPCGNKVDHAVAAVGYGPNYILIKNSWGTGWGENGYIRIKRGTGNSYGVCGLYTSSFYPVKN
# Legend:
# papain = papain (Carica papaya, UniProt P00784); experiment: Continuous monitoring for iodoacetamide in water (papain polymer, effluent pH/colour); details: 10 ppm in sample stream; papain polymer 100 units per gram; baseline below pH 4.9 (yellow); color change yellow to purple
# [1] = target: organophosphorus hydrolase (Brevundimonas diminuta, UniProt P0A434); experiment: Continuous monitoring for paraoxon in water by catalytic hydrolysis (enzyme polymer, effluent pH); details: 0.5 mM in inlet water; 100 mg polymer, 50 mg organophosphorus hydrolase per gram; baseline pH 7.8
SMILES,effluent pH after inhibitor in the sample stream (papain),effluent pH after addition of analyte to inlet water stream [1]
NC(=O)CI,7.0,–
CCOP(=O)(OCC)Oc1ccc([N+](=O)[O-])cc1,–,5.8
